Earlier results on one molecule are cited in patent publication US12404348B2, “Bifunctional chimeric molecules for labeling of kinases with target binding moieties and methods of use thereof” (The Brigham and Women's Hospital, Inc., priority 2021, dated 2025).

Sequences of proteins named here, by UniProt entry; tags and fusion partners are left off.
UniProt Q9Y243, whole entry, species assumed: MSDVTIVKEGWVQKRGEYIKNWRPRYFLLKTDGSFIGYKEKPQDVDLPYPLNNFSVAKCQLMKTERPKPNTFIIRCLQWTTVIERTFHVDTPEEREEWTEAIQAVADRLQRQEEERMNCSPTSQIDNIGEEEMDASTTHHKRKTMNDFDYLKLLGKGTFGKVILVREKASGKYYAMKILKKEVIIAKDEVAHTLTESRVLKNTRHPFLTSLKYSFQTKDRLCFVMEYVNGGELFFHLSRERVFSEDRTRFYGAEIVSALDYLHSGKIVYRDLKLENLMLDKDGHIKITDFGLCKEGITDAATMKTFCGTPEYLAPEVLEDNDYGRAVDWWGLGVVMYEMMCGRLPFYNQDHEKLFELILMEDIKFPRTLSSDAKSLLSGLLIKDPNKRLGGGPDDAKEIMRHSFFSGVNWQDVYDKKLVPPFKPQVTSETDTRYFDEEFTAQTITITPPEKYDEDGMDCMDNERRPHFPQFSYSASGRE

Each structure is given as a SMILES string.

The series addresses AKT3 (Homo sapiens, UniProt Q9Y243).

For `Nc1ncccc1-c1nc2cc(-c3cccnc3)cnc2n1-c1ccc(CNC(=O)c2cccc(F)c2)cc1` [Compound 12g], the “Akt3 ΔTm” value is 1.5 °C.
